Read-outs that look alike come from different tables or passages of the source.
Tested on: β-adrenergic receptors coupled with adenylyl cyclase in PAZ-6 cells
Details: 15 min

In the case of `CC(C)NCC(O)c1ccc(O)c(O)c1` (stereo not shown) [isoproterenol, isoprenaline], the “Multiplication factor/basal level (cAMP)” value (PAZ-6 differentiated) is reported as 15, the “Multiplication factor/basal level (cAMP)” value (PAZ-6 not differentiated) is reported as 21 and the “increase in the cAMP level/basal level” value (differentiated PAZ-6, isoproterenol 10 μM) is reported as 15 fold. For the same molecule, the “increase in the cAMP levels” value (undifferentiated PAZ-6, isoproterenol 10 μM) was 21 fold.

Source: patent US6071747A, “Immortalized cell lines from human adipose tissue, process for preparing same and applications thereof” (Centre National de la Recherche Scientifique-CNRS, priority 1995, dated 2000)
